These results are taken from article PMC9770395 (PLOS Neglected Tropical Diseases, 2022).

By UniProt entry, the sequences of proteins in these tests, tags left out.
UniProt P13569, whole entry: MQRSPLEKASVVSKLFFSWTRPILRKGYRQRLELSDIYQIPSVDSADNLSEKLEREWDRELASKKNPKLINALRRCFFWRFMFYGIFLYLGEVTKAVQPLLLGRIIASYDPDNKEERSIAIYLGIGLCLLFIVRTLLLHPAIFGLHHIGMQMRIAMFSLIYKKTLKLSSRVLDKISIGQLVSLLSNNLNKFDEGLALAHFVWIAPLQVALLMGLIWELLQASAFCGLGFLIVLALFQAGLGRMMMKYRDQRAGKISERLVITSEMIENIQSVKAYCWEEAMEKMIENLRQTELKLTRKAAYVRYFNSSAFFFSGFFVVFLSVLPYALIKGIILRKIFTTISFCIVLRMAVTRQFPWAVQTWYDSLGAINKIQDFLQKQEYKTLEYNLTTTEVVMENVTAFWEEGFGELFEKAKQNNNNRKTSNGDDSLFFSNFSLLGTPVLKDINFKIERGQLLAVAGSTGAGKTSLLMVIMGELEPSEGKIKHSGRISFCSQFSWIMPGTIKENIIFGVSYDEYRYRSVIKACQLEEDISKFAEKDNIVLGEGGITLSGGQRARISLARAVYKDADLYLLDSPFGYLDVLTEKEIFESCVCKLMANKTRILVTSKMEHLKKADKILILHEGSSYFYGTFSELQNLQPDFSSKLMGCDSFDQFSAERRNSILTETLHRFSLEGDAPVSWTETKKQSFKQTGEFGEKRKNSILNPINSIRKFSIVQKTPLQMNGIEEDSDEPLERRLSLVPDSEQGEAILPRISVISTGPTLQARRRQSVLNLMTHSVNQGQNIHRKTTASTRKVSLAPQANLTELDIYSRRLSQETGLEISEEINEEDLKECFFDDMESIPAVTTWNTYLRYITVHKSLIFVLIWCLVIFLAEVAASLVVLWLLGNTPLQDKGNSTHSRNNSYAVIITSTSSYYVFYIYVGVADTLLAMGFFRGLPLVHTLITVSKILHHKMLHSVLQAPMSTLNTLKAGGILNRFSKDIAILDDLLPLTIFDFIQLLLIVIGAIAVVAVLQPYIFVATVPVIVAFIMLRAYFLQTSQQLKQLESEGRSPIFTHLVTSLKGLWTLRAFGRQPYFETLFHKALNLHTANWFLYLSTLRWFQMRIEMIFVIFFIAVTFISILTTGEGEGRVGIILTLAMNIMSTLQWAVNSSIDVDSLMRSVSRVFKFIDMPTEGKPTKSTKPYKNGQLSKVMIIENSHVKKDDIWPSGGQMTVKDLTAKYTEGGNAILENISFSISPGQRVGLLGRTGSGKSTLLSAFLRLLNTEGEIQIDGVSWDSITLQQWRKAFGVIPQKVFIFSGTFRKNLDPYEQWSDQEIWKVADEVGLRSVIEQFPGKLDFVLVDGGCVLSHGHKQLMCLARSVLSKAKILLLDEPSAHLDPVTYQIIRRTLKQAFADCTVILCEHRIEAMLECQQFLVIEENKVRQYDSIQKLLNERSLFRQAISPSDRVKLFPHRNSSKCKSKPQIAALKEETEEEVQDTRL

In one test the target is CFTR (Homo sapiens, UniProt P13569).
For test [1], the system named is CT-induced intestinal fluid secretion. The class given is in vivo, mouse. Conditions: 6 h.
For a further test, the system named is Na^+/K^+ ATPase. Briefly: Ouabain-sensitive ISC in apically permeabilized T84 cells. The class given is cell-based, human. To be noted: 20 μM.

Molecules are shown by their SMILES. Several values for one entry are separate records, joined by “and”; a condition that tells them apart may be missing. Equal values may be shown once. Read-outs that look alike come from different tables or passages of the source.

For the compound `CC[C@H](C)C(=O)O[C@H]1C[C@@H](C)C=C2C=C[C@H](C)[C@H](CC[C@@H]3CC=CC(=O)O3)[C@H]21` [DHLV, α,β-dehydrolovastatin], the IC50 was found to be 5500 ± 210 nM at CFTR (IC50, CFTR-mediated apical ICl^- induced by CPT-cAMP, CPT-cAMP (100 μM)); 2100 ± 250 nM against CFTR (IC50, CFTR-mediated apical ICl^- induced by forskolin, forskolin (20 μM) as CFTR stimulator); 2710 ± 260 nM on CFTR (IC50, forskolin-induced CFTR apical ICl^- after Na3VO4 and NaF pretreatment, NaF plus Na3VO4 (1 mM, PP inhibitors), 15 min); 4450 ± 440 nM at CFTR (IC50, forskolin-induced CFTR apical ICl^- after compound C pretreatment, compound C (50 μM, AMPK inhibitor), 15 min); 1660 ± 320 nM at CFTR (IC50, forskolin-induced CFTR-mediated apical ICl^- in the presence of MK571, pre-treatment with MK571 (20 μM, MRP4 inhibitor)). In addition, in test [1], the “Reduction of CT-induced fluid secretion (loop weight/length ratio), intraluminal” value was 65% and ~64.64%. For the same compound, the “Reduction of CT-induced fluid secretion (loop weight/length ratio), intraperitoneal” value in test [1] was 59% and ~59.30%. The “Effect on ouabain-sensitive ISC (Na^+/K^+ ATPase activity)” value in the test with Na^+/K^+ ATPase was “did not affect”.

In general, IC50 refers to the midpoint of a concentration-inhibition curve.
